The chains are these.
B1: CeHD, hydrophilic domain of the Caenorhabditis elegans group 3 LEA protein (domain or fragment)
chain: AYNSAKDKAGDAWDSTKDAAGDAKDKTKSFTEKVGDKISGAYDSVKEKASDVADSFKAHSTDSKDNVENKAADAYNTAKDKASDAWDKTKDKAGEAKDKMGDAWDTTKDKAGDAWDTTKDKAGDGKGKAGDAWDTTKDKASDAWDTTKDKAGEAKDKMGEAWDHTKDKAGEAKDKASDAADDAQGKSKSMTEKIGDSISGAWESTKDTAVSAKDKTAEAAGKVGDSISGAYDTVKEKASDIADSFKAHSTDSKDNVENKAADAYNSAKDKASDAWDKTKDKAGDAKDKAADAWDTTKDKAGDAWDSTKDHAADAKDKASDAAGDAKDKSKSLTEKAGDAISGAYDSVKEKASDIADSFKAHSTNSKDNVENKASDAYNSAKDKASDAWDKTKDKAGEAKDKAGDAWDNTKDKAGNAWDSTKDKASDAWDTTKDKASDAKESAGDAADSAKDKSKSITETIGDKISGAYDSVKEKASD
modifications: labelled with the Monolith NT Protein Labeling Kit RED-NHS
B2: BnHD, hydrophilic domain of the Brassica napus group 3 LEA protein (domain or fragment)
chain: TAQKAQQKAQETAQAAKDKTSQAAQTTQQKAQETAQAAKDKTSQAAQTTQQKAHETTQSSKEKTSQAAQTAQEKARETKDKTGSYLSETGEAVKQKAQDAAQYTKETAQNAAQYTKETAEA
modifications: labelled with the Monolith NT Protein Labeling Kit RED-NHS
B3: DrHD, hydrophilic domain of DrG3LEA (Deinococcus radiodurans group 3 LEA protein) (domain or fragment)
chain: VADTAKDAGQNVGQNVKREAADLADQAKDKAQDVKADVSKAADQAKDKAQDVAQNVQAGAQQAAANVKDKVQDVKADASKAADQAKDKAQDVAQNVKQGAQQAASDAKDKVQDVKADASRAADQAKDKAQDVAQNVKQSAQD
modifications: labelled with the Monolith NT Protein Labeling Kit RED-NHS

The Kd is a measure of binding affinity in units of concentration. A higher Kd goes with lower affinity.

For this assay, the target named is lactate dehydrogenase (LDH). Nature of the assay: MST; 10 mM H2O2.
Molecule B1 had a dissociation constant (Kd) of 210 nM.

In turn, B2 showed a Kd of 580 nM.

On to B3, for which the dissociation constant Kd amounted to 70 nM.

The values above are taken from article PMC6559209 (2019).
